# Assay results published in PubChem BioAssay AID925 (National Center for Advancing Translational Sciences (NCATS), 2007).
# This is a selection; strong and weak results do not stand in their true shares. The source made the active and inactive calls. The call rests on the fitted dose curve; in most records, active means well fitted activation curve with a large enough effect; inconclusive means small, poorly fitted or top-dose-only effect; inactive means flat fitted curve, though single readings scatter.
# Test: qHTS Assay for Modulators of Hemoglobin Beta Chain Splicing; further: 0% is about no effect
# Settings: HBB splicing reporter cell assay, EGFP reporter with mutant IVS2-654 intron, normalised to 500 nM splice-correcting PNA; at 46.1 µM (top of the series) unless noted
# Source text: NIH Chemical Genomics Center [NCGC]
# NIH Molecular Libraries Screening Centers Network [MLSCN]
# PI Name: Dr. Ryszard Kole
# Modulation of Alternative Splicing as Therapy
# Abnormal splicing is associated with a number of diseases, including cancer and genetic diseases such as cystic fibrosis, muscular dystrophy and beta-thalassemia. Alteration of disease associated splicing patterns provides a promising target for treatment. […] Mutations in the second intron of the beta-globin gene at positions are clinically relevant and cause mis-splicing which results in an out of frame gene product.
# EGFP-654 and 705 HeLa Cells as screen system.
# HeLa cell lines were stably transfected with a construct in which the EGFP (enhanced green fluorescent protein) cDNA was interrupted by the second intron of the beta-globin gene (IVS2-654). The ISV2 intron contains mutations which cause mis-splicing of EGFP and premature termination of EGFP which results in a nonfluorescent protein product. […] Expression of the transgene was driven by the CMV promoter. We concluded that a low molecular weight compound, which restored correct splicing of intron 2 would also generate functional EGFP protein, resulting in a fluorescent signal. Thus, the HeLa cells that express the EGFP-654 construct can be used for high throughput screening of a chemical library.
# NCGC Assay Protocol Summary:
# High Throughput Screening. Freshly thawed HeLa EGFP-654 cells were seeded in 5 ul of optimem media (Invitrogen) containing 2 % fetal calf serum (Hyclone) and 1x penicillin/streptomycin (Invitrogen) at a concentration of 500 cells per well in 1536-well plates. Cells were incubated overnight at 37C in 5% CO2. The next day, cells were treated with DMSO, 500 nM antisense ISV2 654 PNA control oligo, or library compound and allowed to grow at 37C in 5% CO2 for 2 days. The PNA oligo blocked the mutation site in the intron and allowed proper (wild type) splicing to occur, resulting in full length EGFP expression and also allowed for optimization of the assay parameters. Plates were read in the Acumen Explorer (TTP Labtech) using 488 nm laser excitation and 500-520 nm emission PMT filter in a 1 x […] capture mode. Fluorescnet Fluorescent objects ranging in size from […] were measured and the total peak GFP intensity for each well was used for data analysis.
# Keywords: Thalassemia, beta-thalassemia, beta-globin, EGFP, ISV2 654, ISV2 705, SSO, PNA, antisense, splicing, MLSMR, MLSCN, NIH Roadmap, qHTS, NCGC
row,SMILES,activation
1,Cc1nc2ccc3ccccc3c2s1.O=[N+]([O-])c1cc([N+](=O)[O-])c(O)c([N+](=O)[O-])c1,inactive: -0.321% [at 57.5 µM]
2,Cc1ccc([N+](=O)[O-])cc1[N+](=O)[O-],inactive: -0.571%
3,O=[N+]([O-])c1cccc([N+](=O)[O-])c1,inactive: 0.604%
4,Cc1ccc(C)c(NP(C)(=O)Oc2ccccc2)c1 (centres undefined),inactive: -0.558% [at 9.22 µM]
5,O=[N+]([O-])[O-].[NH4+],inactive: 1.97%
6,Cc1ccc(NP(C)(=O)Oc2ccccc2)c(C)c1 (centres undefined),inactive: 0.146%
7,COc1ccccc1OP(C)(=O)Nc1ccc(C)cc1 (centres undefined),inactive: -0.709%
8,CP(=S)(Nn1cnnc1)Oc1ccccc1 (centres undefined),inactive: 4.51% [at 0.369 µM]
9,N1=C(c2nnc(-c3nn[nH]n3)nn2)NNN1,inactive: -0.488% [at 9.22 µM]
10,CCOP(C)(=S)SCC(=O)NC(C)C(=O)O (centres undefined),inactive: 5.19%
11,CP(=O)(NC(=O)Nc1ccccc1)Oc1ccccc1 (centres undefined),inactive: 0.491%
12,N#[O+].[C-]#N.[C-]#N.[C-]#N.[C-]#N.[C-]#N.[Fe+2].[Na+].[Na+],inactive: 0.329%
13,CP(=O)(Oc1ccccc1)N1CCOC1=O (centres undefined),inactive: 0.723%
14,COc1ccccc1OP(C)(=O)Nc1c(C)n(C)n(-c2ccccc2)c1=O (centres undefined),inactive: 0.866% [at 1.84 µM]
15,C/C1=C2N=C(/C=C3N=C(/C(C)=C4\[N-][C@@](C)([C@H]5N=C1[C@@](C)(CCC(=O)NC[C@H](C)OP(=O)([O-])O[C@@H]1[C@H](O)[C@H](n6cnc7cc(C)c(C)cc76)O[C@@H]1CO)[C@@H]5CC(N)=O)[C@](C)(CC(N)=O)[C@H]4CCC(N)=O)[C@@](C)(CC(N)=O)[C@@H]\3CCC(N)=O)C(C)(C)[C@@H]/2CCC(N)=O.[C-]#N.[Co+3],inactive: 0.24% [at 20.6 µM]
16,Cc1nc2ccc3ccccc3c2o1.O=[N+]([O-])c1cc([N+](=O)[O-])c(O)c([N+](=O)[O-])c1,inactive: -0.699%
17,COc1ccccc1OP(C)(=O)Nc1ccc(C)c(C)c1 (centres undefined),inactive: -0.168% [at 57.5 µM]
18,CP(=O)(Nc1ccccn1)Oc1ccccc1 (centres undefined),inactive: 0.857%
19,CP(=O)(Nc1ccccc1F)Oc1ccccc1 (centres undefined),inactive: 1.91%
20,Cc1cccc([N+](=O)[O-])c1[N+](=O)[O-],inactive: -1.17%
21,CCC(C)(OO)OOC(C)(CC)OO (centres undefined),inactive: -0.158%
22,Cc1ccc([N+](=O)[O-])c([N+](=O)[O-])c1,inactive: 0.392%
23,Cc1c([N+](=O)[O-])cccc1[N+](=O)[O-],inactive: 0.378%
24,CP(=O)(Nc1ccc2c(c1)OCCO2)Oc1ccccc1 (centres undefined),inactive: 0.477%
25,NNC(NN)NN.n1nc(-c2nn[nH]n2)n[nH]1,inactive: 2.28% [at 9.22 µM]
26,[NH4+].[O-][Cl+3]([O-])([O-])[O-],inactive: -0.815%
27,Cc1ccccc1NP(C)(=O)Nc1ccccc1C,inactive: 5.77% [at 0.369 µM]
28,CCOP(=O)(CC)OCC,inactive: 1.54%
29,CCOP(C)(=S)SCC(=O)NC(C)(CC)C(=O)O (centres undefined),inactive: 0.131%
